# Earlier results as cited in paper PMC13507575.
# pKd: −log10 of the molar value.
# Molecular target: IL-1β (Homo sapiens) (UniProt P01584)
substance,measurement,value
gevokizumab,pKd,9.54
